# Measurements as given in US6710088B2 (NPS Pharmaceuticals, Inc., priority 1996, dated 2004).
# Chains of the proteins cited; added tags and fusions are not shown. Residues count along the entry.
# UniProt P41180, 20-1078 limits assumed: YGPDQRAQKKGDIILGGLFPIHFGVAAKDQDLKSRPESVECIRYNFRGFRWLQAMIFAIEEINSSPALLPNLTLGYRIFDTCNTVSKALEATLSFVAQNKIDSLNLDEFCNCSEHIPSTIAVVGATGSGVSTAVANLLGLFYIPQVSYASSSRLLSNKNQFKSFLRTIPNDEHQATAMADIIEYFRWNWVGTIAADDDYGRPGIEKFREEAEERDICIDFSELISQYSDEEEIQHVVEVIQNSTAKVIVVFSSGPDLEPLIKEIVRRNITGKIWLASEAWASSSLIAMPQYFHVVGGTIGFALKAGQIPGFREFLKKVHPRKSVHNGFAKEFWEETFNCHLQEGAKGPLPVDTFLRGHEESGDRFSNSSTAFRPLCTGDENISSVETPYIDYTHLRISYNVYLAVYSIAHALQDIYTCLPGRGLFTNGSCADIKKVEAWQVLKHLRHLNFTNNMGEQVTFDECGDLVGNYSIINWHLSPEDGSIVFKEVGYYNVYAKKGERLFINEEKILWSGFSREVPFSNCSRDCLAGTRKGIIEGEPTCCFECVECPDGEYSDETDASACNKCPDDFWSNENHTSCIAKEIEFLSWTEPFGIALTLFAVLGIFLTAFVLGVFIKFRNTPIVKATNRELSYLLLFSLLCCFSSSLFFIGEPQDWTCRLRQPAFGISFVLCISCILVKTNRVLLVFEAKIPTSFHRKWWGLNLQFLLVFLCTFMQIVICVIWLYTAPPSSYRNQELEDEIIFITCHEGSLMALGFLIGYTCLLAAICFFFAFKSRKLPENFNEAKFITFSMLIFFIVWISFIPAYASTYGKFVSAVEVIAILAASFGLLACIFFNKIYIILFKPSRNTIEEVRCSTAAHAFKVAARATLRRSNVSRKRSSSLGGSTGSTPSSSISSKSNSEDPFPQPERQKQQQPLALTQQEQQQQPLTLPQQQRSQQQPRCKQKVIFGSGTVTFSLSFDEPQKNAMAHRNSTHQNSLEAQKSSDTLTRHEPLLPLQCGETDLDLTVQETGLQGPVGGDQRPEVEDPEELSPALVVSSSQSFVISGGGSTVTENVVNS
# pEC50: −log10 of the molar value.
# Biological target: calcium receptor (Homo sapiens, UniProt P41180)
# Test: Calcium receptor activity in recombinant HEK 293 4.0-7 cells (fluorescence of dye-loaded cells)
# Settings: recombinant HEK 293 4.0-7 cells containing a calcium receptor; 1 mM CaCl2, 1 mM MgCl2; fluorescence 340/510 nm
# Method: Recombinant HEK 293 4.0-7 cells containing a calcium receptor were constructed as described by Rogers et al., J. Bone Miner. Res. 10 Suppl. 1:S483, 1995 (hereby incorporated by reference herein). The recombinant cells were loaded with fura-2 by incubating the cells in Dulbecco's modified Eagle's medium buffered with 20 mM HEPES containing about 5 μM […] for one hour at room temperature. Cells were then rinsed with Hank's balanced salt solution buffered with 20 mM HEPES containing 1 mM CaCl2 and 1 mM MgCl2. Compounds to be tested were then added to the cells and fluorescence was measured (excitation and emission wavelengths of 340 and 510 nm, respectively).
row,pEC50,SMILES
1,7.66,C[C@@H](NCc1ccc(Br)c(Br)c1)c1cccc2ccccc12
2,4.66,C[C@@H](NCCc1ccccc1Cl)c1cccc(OCC(=O)O)c1
3,6.68,COc1cccc([C@@H](C)NCCCc2cccc(Cl)c2Cl)c1
4,6.57,"CC(NCCCc1ccccc1Cl)c1cccc2c1OCO2 (single isomer, unassigned) [Compound 28C]"
5,6.02,COc1cccc([C@@H](C)NCCCc2ccccc2C#N)c1
6,5.92,C[C@@H](NCc1cccs1)c1cccc2ccccc12
7,5.59,COc1cccc([C@@H](C)NCCCc2ccc(C#N)cc2)c1
8,5.80,COc1ccc([C@H](N[C@H](C)c2cccc3ccccc23)C(C)C)cc1C
9,5.96,CC(C)(NCCCc1ccccc1Cl)c1cccc2ccccc12
10,6.68,"CC(/C=C/c1cccc(OC(F)(F)F)c1)N[C@H](C)c1cccc2ccccc12 (single isomer, unassigned) [Compound 27U]"
11,4.92,COc1cccc(C(C)(C)NCCCc2ccccc2)c1
12,5.52,C[C@@H](NCc1ccoc1)c1cccc2ccccc12
13,7.15,"COc1cccc([C@@H](C)NC(C)/C=C/c2cccc(OC(F)(F)F)c2)c1 (single isomer, unassigned) [Compound 27G]"
14,6.52,COc1cccc([C@@H](C)NCCCc2ncccn2)c1
15,7.92,C[C@@H](NCc1ccc(Br)c(Cl)c1)c1cccc2ccccc12
16,7.24,C[C@@H](N[C@H](C)c1cccc2ccccc12)c1cc2ccccc2o1
17,6.77,C[C@@H](NCCCCc1cc(Cl)ccc1Cl)c1cccc2ccccc12
18,5.82,CC(C)(NCCCc1cccc(C(F)(F)F)c1)c1cccc2ccccc12
19,< 5.52,FC(F)(F)c1cccc(CCCN2CCc3ccccc3C2)c1

row,pEC50,SMILES
1,6.64,"COc1cccc([C@@H](C)NC(C)/C=C/c2cccc(OC(F)(F)F)c2)c1 (single isomer, unassigned) [Compound 27F]"
2,6.54,COc1cccc([C@@H](C)NCCCc2cccc(Cl)c2)c1
3,6.09,COc1cccc([C@@H](C)NCCCc2ccc(Cl)c(Cl)c2)c1
4,5.96,C[C@@H](NCc1ccsc1)c1cccc2ccccc12
5,8.02,C[C@@H](NCc1ccc(I)c(Cl)c1)c1cccc2ccccc12
6,6.22,C[C@@H](NCc1ccco1)c1cccc2ccccc12
7,6.85,"CC(/C=C/c1cccc(OC(F)(F)F)c1)N[C@H](C)c1cccc2ccccc12 (single isomer, unassigned) [Compound 27V]"
8,5.56,C[C@@H](NCc1csc2ccccc12)c1cccc2ccccc12
9,5.74,COc1cccc([C@@H](C)NCCOc2ccccc2Cl)c1
10,7.64,CCCC[C@@H](N[C@H](C)c1cccc2ccccc12)c1ccc(OC)c(C)c1
11,5.14,"CC(NCCCc1ccccc1Cl)c1cccc2c1OCO2 (single isomer, unassigned) [Compound 28D]"
12,7.80,C[C@@H](NCc1ccc(I)c(Br)c1)c1cccc2ccccc12
13,5.54,COc1cccc(C(C)(C)NCCCc2cccc(C(F)(F)F)c2)c1
14,7.62,COc1ccc(CN[C@H](C)c2cccc3ccccc23)cc1I
15,4.96,COc1cccc(CNCCCc2cccc(Cl)c2)c1
16,5.42,CC(NCCCc1ccccc1Cl)c1cccc(Cl)c1Cl (centres unmarked)
17,6.18,COc1cccc([C@@H](C)NCCCc2ccc(Cl)cc2Cl)c1
18,7.28,COc1cccc([C@@H](C)NC/C=C/c2ccccc2Cl)c1
19,7.54,CCC[C@@H](N[C@H](C)c1cccc2ccccc12)c1ccc(OC)c(C)c1
